# Publication PMC7217150, “Synthesis, Modification, and Biological Evaluation of a Library of Novel Water‐Soluble Thiopyridone‐Based Organometallic Complexes and Their Unexpected (Biological) Behavior” (Chemistry (Weinheim an Der Bergstrasse, Germany), 2020)
# Columns and labels:
# [1] = pH 7.2
# Experimental: Stock solutions containing the desired complex in DMSO (5 mM) were diluted with phosphate buffer (pH 7.2) to a final concentration of […] compound in 1 % DMSO/20 mM buffer and directly analyzed by four different isocratic UHPLC runs (Δ=5 %). The lipophilicity parameters logkw and lipophilicity indices φ0 were calculated according to literature.7, 37
# [2] = system: human cancer cell lines CH1/PA‐1, SW480, A549
substance,measurement,setting,value
"Chlorido[1‐benzyl‐2‐methyl‐3‐oxo‐κO‐pyridine‐4(1H)‐thionato‐κS](η^5‐1,2,3,4,5‐pentamethylcyclopentadienyl)rhodium(III) [Compound 5 c]",φ0 (chromatographic lipophilicity index),[1],6.28
same,cytotoxicity relative to 3 c and 4 c,[2],up to 20 times
